The list shows a part of the results, in another mix than the full data. Results filed as inconclusive are left out. Active and inactive are the calls of the source. Unless noted, calls follow the shape of the dose curve; as a rule, active = well fitted curve in the direction sought with a large enough effect; inconclusive = small, poorly fitted or top-dose-only effect, or another doubt; inactive = no such curve, though single readings can be large; an effect the other way counts as inactive or inconclusive.
Experiments:
[1] = Cell Viability - LYMP2-021 (AID 974); details: LYMP2-021 lymphoblastoid cells viability; at 92.2 µM (top of the series);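 also: compound exposure lasts 24 hours at 37 °C; % is scaled to controls: 0 for no effect and ±100 for the full control effect; nearly all actives have a fitted effect of over 55% in size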
Outline: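 ATP luminescence (CellTiter-Glo, 30 min RT) after 24 h compound exposure at 37 C; 2500 human lymphoblastoid cells/well, 5 h settle beforehand. Cytotoxicity = concentration-dependent ATP drop, AC50 by Hill fit.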

[2] = Cell Viability - LYMP2-023 (AID 975); details: LYMP2-023 lymphoblastoid cell viability; at 92.2 µM (top of the series);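 also: cellular ATP measured by luciferase luminescence as viability proxy; cells exposed to compound for 24 hours at 37 °C; plate controls were DMSO only for no effect and 92 µM tetraoctylammonium bromide control for full effect; nearly all actives have a fitted effect of over 55% in size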
Outline: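 CellTiter-Glo luminescence after 30 min at room temperature; decrease in intracellular ATP reflects toxicity. Cells: human lymphoblastoid line, 2500/well, 24 hr compound exposure at 37 C. AC50 fitted to standard Hill equation from concentration-response.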

[3] = Cell Viability - LYMP2-025 (AID 976); details: LYMP2-025 lymphoblastoid cell viability; at 92.2 µM (top of the series);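 also: plate controls were DMSO only for no effect and tetraoctylammonium bromide control for full effect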
Outline: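 CellTiter-Glo luminescence (cellular ATP) after 24 h compound exposure at 37 C; LYMP2-025 human lymphoblastoid cells, 2500/well, complete medium. Tetraoctylammonium bromide positive control. AC50 by Hill equation fit of qHTS concentration-response.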

[4] = Cell Viability - LYMP2-002 (AID 977); details: LYMP2-002 lymphoblastoid cell viability, qHTS; at 92.2 µM (top of the series);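 also: plate controls were DMSO only for no effect and 92 µM tetraoctylammonium bromide for full effect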
Outline: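 In this qHTS viability screen, 2500 human lymphoblastoid cells per well receive compound for 24 hr at 37 C, and luciferase-based ATP luminescence gives the viability signal. Tetraoctylammonium bromide serves as positive control.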

[5] = Cell Viability - LYMP2-006 (AID 978); details: LYMP2-006 lymphoblastoid cell viability, qHTS; at 92.2 µM (top of the series);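 also: cells exposed to compound for 24 hours; % is scaled to controls: 0 for no effect and ±100 for the full control effect; nearly all actives have a fitted effect of over 60% in size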
Outline: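 Concentration-dependent loss of intracellular ATP in a human lymphoblastoid line after 24 hr treatment at 37 C was measured by CellTiter-Glo luminescence, with AC50 values obtained from standard Hill-equation modelling.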

[6] = Cell Viability - LYMP2-007 (AID 979); details: LYMP2-007 lymphoblastoid cell viability; at 92.2 µM (top of the series);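 also: cells exposed to compound for 24 h before reading; 0% = DMSO only and the negative end = 92 µM tetraoctylammonium bromide; nearly all actives have a fitted effect of over 60% in size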
Outline: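 qHTS cytotoxicity: 2500 cells/well, 5 hr 37 C settle, compound 24 hr 37 C, CellTiter-Glo 30 min RT, luminescence. Decrease in ATP = toxicity. AC50 by standard Hill equation; tetraoctylammonium bromide positive control.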

[7] = Cell Viability - LYMP2-008 (AID 980); details: LYMP2-008 lymphoblastoid cell viability, qHTS; at 92.2 µM (top of the series); also: % is scaled to controls: 0 for no effect and ±100 for the full control effect; nearly all actives have a fitted effect of over 60% in size
Outline: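 Luminescent ATP read-out (CellTiter-Glo, 30 min RT) after 24 hr compound exposure at 37 C of human lymphoblastoid cells in complete medium. Decrease in ATP taken as cytotoxicity; AC50 derived by standard Hill fit of qHTS concentration-response data.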

[8] = Cell Viability - LYMP2-012 (AID 982); details: LYMP2-012 lymphoblastoid cell viability qHTS; at 92.2 µM (top of the series);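 also: cellular ATP by luciferase luminescence where a drop means cytotoxicity; cells exposed to compound for one day before reading; 0% = DMSO only and full loss = 92 µM tetraoctylammonium bromide; nearly all actives have a fitted effect of over 55% in size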
[9] = Cell Viability - LYMP2-014 (AID 983); details: LYMP2-014 lymphoblastoid cells, viability qHTS; at 92.2 µM (top of the series);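 also: plate controls were DMSO only for no effect and 92 µM tetraoctylammonium bromide for full effect; nearly all actives have a fitted effect of over 50% in size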
Outline: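 2500 cells/well, 5 hr 37 C; cpd 24 hr 37 C, complete medium; CellTiter-Glo 30 min RT, luminescence; ATP loss = toxicity; AC50 via Hill eqn; tetraoctylammonium bromide positive control.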

[10] = Cell Viability - LYMP2-016 (AID 984); details: LYMP2-016 lymphoblastoid cell viability, qHTS; at 92.2 µM (top of the series);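 also: cells exposed to compound for 24 hours at 37 °C; % is scaled to controls: 0 for no effect and ±100 for the full control effect; nearly all actives have a fitted effect of over 55% in size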
Outline: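 Acute toxicity in a Coriell human lymphoblastoid line is scored as loss of intracellular ATP over 24 h of treatment in complete medium. CellTiter-Glo signal is fitted across concentrations with the Hill equation to give AC50.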

[11] = Cell Viability - LYMP2-018 (AID 985); details: LYMP2-018 lymphoblastoid cells, viability (qHTS); at 92.2 µM (top of the series);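 also: plate controls were DMSO only for no effect and tetraoctylammonium bromide at 92 µM for full effect; nearly all actives have a fitted effect of over 50% in size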
Outline: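 2500 cells/well; 5 hr 37 C; cmpd 24 hr 37 C, complete medium; CellTiter-Glo 30 min RT; luminescence. Tetraoctylammonium bromide positive control. AC50 via Hill fit.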

[12] = Cell Viability - LYMP2-020 (AID 986); details: LYMP2-020 lymphoma cell viability, qHTS; at 92.2 µM (top of the series)
Outline: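 qHTS, 2500 cells/well; 5 hr then 24 hr compound exposure, 37 C; CellTiter-Glo luminescence after 30 min RT; ATP decrease taken as cytotoxicity; AC50 via Hill equation; tetraoctylammonium bromide positive control.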

[13] = Cell Viability - LYMP2-022 (AID 987); details: LYMP2-022 lymphoblastoid cell viability; at 92.2 µM (top of the series)
Outline: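 Luminescent ATP read-out (CellTiter-Glo, 30 min, RT) after 24 hr, 37 C compound exposure of 2500 human lymphoblastoid cells/well in complete medium. Cytotoxicity taken as concentration-dependent ATP loss; AC50 from standard Hill equation.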

[14] = Cell Viability - LYMP2-024 (AID 988); details: LYMP2-024 lymphoblastoid cell viability; at 92.2 µM (top of the series);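 also: plate controls were DMSO only for no effect and 92 µM tetraoctylammonium bromide for full effect; nearly all actives have a fitted effect of over 60% in size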
Outline: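 ATP-based luminescence (CellTiter-Glo, 30 min RT) after 24 h compound exposure at 37 C of 2500 lymphoblastoid cells/well; decrease in ATP taken as cytotoxicity. qHTS concentration-response fitted to standard Hill equation for AC50.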

[15] = Cell Viability - LYMP2-026 (AID 989); details: LYMP2-026 lymphoblastoid cell viability, qHTS; at 92.2 µM (top of the series); also: % is scaled to controls: 0 for no effect and ±100 for the full control effect; nearly all actives have a fitted effect of over 50% in size
Outline: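 qHTS cytotoxicity: 2500 cells/well, 5 hr 37 C, compound 24 hr 37 C, CellTiter-Glo 30 min RT, luminescence. Tetraoctylammonium bromide positive control. AC50 via standard Hill fit.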

[16] = Cell Viability - LYMP1-002 - Assay at 24 hr (AID 993); details: LYMP1-002 lymphoblastoid cells viability; at 92.2 µM (top of the series); also: % is scaled to controls: 0 for no effect and ±100 for the full control effect
Outline: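 CellTiter-Glo luminescence (intracellular ATP) after 24 h compound exposure, 37 C, in LYMP1-002 human lymphoblastoid cells; decreased ATP taken as cytotoxicity. AC50 from standard Hill fit of concentration-response curves.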

[17] = Cell Viability - LYMP1-002 - Assay at 40 hr (AID 994); details: LYMP1-002 lymphoblastoid cell viability; at 92.2 µM (top of the series)
Outline: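 qHTS cytotoxicity; 2500 cells/well, 5 hr 37 C settle, compound 40 hr 37 C. CellTiter-Glo, 30 min RT, luminescence (ATP). Concentration-response, Hill fit → AC50. Pos. ctrl tetraoctylammonium bromide.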

[18] = Cell Viability - LYMP2-010 (AID 981); also: potency is read from the fitted curve at half-maximal effect
Outline: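 qHTS cytotoxicity, 1536-well: 2500 cells/well, 5 hr settle, 24 hr compound at 37 C, CellTiter-Glo 30 min RT, luminescence read. Decrease in ATP = toxicity; AC50 via standard Hill equation. Positive control tetraoctylammonium bromide.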

[19] = molecular target: alpha-glucosidase (Oryza sativa, rice) (UniProt Q653V4); assay: Counterscreen for Glucocerebrosidase Inhibitors: qHTS Assay for Rice alpha-Glucosidase at pH 5.0 (AID 997); details: rice alpha-glucosidase enzyme activity; at 76.9 µM (top of the series);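 also: 0% = full activity with enzyme and -100% = basal without enzyme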
Outline: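 Endpoint fluorogenic assay at pH 5.0: compounds (0.7 nM to 77 uM) titrated against 4 nM rice enzyme and 400 uM 4-MU-alpha-glucoside for 20 min at room temperature; NaOH/glycine stop, read ex 365/em 440 nm, Hill-fitted AC50.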

[20] = Validation of Assay for Modulators of Lamin A Splicing (AID 1459; active = well fitted curve in the direction sought with a large enough effect in the signal ratio; the % refers to the signal ratio;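 also: cells exposed to compound for two days before reading; 0% is about no effect; ratio rise marks activators and ratio drop marks inhibitors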); details: Lamin A splicing dual RFP/GFP fluorescence reporter; at 9.22 µM (top of the series)
Outline: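 Splicing correction is reported by an EGFP-containing lamin A minigene in stably transfected S3 HeLa cells, while DsRed2 controls for viability and nonspecific signal. Cells are exposed to compounds for 48 hrs before the GFP over RFP ratio is taken.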

Row | Structure (SMILES) | activity change, negative = cytotoxicity [1] | activity change, negative = cytotoxicity [2] | activity change, negative = cytotoxicity [3] | activity change, negative = cytotoxic [4] | activity change, negative = cytotoxicity [5] | activity change, negative = cytotoxicity [6] | activity change, negative = cytotoxicity [7] | activity change, negative = cytotoxicity [8] | activity change, negative = cytotoxicity [9] | activity change, negative = cytotoxicity [10] | activity change, negative = cytotoxicity [11] | activity change, negative = viability loss [12] | viability change, negative = cytotoxic [13] | activity change, negative = cytotoxicity [14] | activity change, negative = cytotoxic [15] | activity change, negative = cytotoxicity [16] | viability change, negative = cytotoxic [17] | Potency [18] | activity change, negative = inhibition [19] | ratio change, both ways [20]
1 | O=[N+]([O-])c1cccc([N+](=O)[O-])c1 | inactive: 0.0239% | inactive: -5.24% | inactive: -12.2% | inactive: -4.87% | inactive: 3.25% | inactive: -5.89% | inactive: -3.44% | inactive: -4.18% | inactive: -10.5% | inactive: -16.6% | inactive: -1.49% | inactive: -5.5% | inactive: -12.1% | inactive: -7.82% | inactive: -3.61% | inactive: 2.53% | inactive: -10.9% | – | – | –
2 | Cc1cccc([N+](=O)[O-])c1[N+](=O)[O-] | inactive: -5.3% | inactive: 5.46% | inactive: -10.2% | inactive: 6.34% | inactive: -4.27% | inactive: -11.2% | inactive: -14.3% | inactive: -21.4% | inactive: -9.59% | inactive: -3.53% | inactive: -7.97% | inactive: -15.5% | inactive: -4.88% | inactive: -31.7% | inactive: -12.1% | inactive: -5.08% | inactive: -5.99% | inactive | – | –
3 | O=[N+]([O-])[O-].[NH4+] | inactive: -6.06% | inactive: 0.0392% | inactive: -3.81% | inactive: -1.58% | inactive: -2.53% | inactive: 0.056% | inactive: -8.07% | inactive: -0.446% | inactive: -15.2% | inactive: -5.47% | inactive: -5.43% | inactive: -1.6% | inactive: 0.293% | inactive: 4.85% | inactive: -6.11% | inactive: 3.73% | inactive: -1.21% | inactive | – | –
4 | Cc1c([N+](=O)[O-])cccc1[N+](=O)[O-] | inactive: -1.57% | inactive: -7.81% | inactive: -4.26% | inactive: 1.95% | inactive: 10.2% | inactive: -7.67% | inactive: -4.34% | inactive: -6.07% | inactive: -5.34% | inactive: -1.48% | inactive: -8.67% | inactive: 6.21% | inactive: 12% | inactive: -1.74% | inactive: 4.71% | inactive: 4.39% | inactive: -2.2% | inactive | – | –
5 | [NH4+].[O-][Cl+3]([O-])([O-])[O-] | inactive: 2.34% | – | inactive: -0.0743% | inactive: -6.45% | – | inactive: 5.66% | inactive: -1.17% | – | – | – | – | – | inactive: -22.3% | inactive: 1.31% | – | inactive: 0.659% | inactive: -4.29% | inactive | – | –
6 | CCC(C)(OO)OOC(C)(CC)OO (centres undefined) | inactive: -21% | inactive: -8.97% | inactive: -5.38% | inactive: -18.3% | inactive: -0.156% | – | inactive: -18.9% | inactive: -23.8% | inactive: 6.65% | inactive: -9.43% | inactive: -7.48% | inactive: -6.45% | inactive: -27.6% | – | inactive: 0.553% | inactive: -6.49% | inactive: -8.03% | active: 39.8 µM | – | –
7 | N#[O+].[C-]#N.[C-]#N.[C-]#N.[C-]#N.[C-]#N.[Fe+2].[Na+].[Na+] | – | – | – | – | – | – | – | – | – | – | – | – | – | – | – | – | – | – | inactive: -2.59% | inactive: -4.7%
8 | CCOP(=O)(CC)OCC | inactive: -4.09% | inactive: -2.55% | inactive: -6.72% | inactive: -7.96% | inactive: 11.7% | inactive: -4.19% | inactive: -10.2% | inactive: 3.23% | inactive: 3.17% | inactive: 0.427% | inactive: -11.9% | inactive: -8.26% | inactive: 5.15% | inactive: -9.96% | inactive: -2.08% | inactive: -0.954% | inactive: 3.49% | inactive | – | –
9 | Cc1ccc([N+](=O)[O-])cc1[N+](=O)[O-] | inactive: -3.53% | inactive: -3.95% | inactive: -10.8% | inactive: -14.1% | inactive: 6.86% | inactive: 0.422% | inactive: -5.12% | inactive: -13.7% | inactive: 2.61% | inactive: -7.05% | inactive: -10.4% | inactive: 1.82% | inactive: -10.2% | inactive: -7.11% | inactive: 6.73% | inactive: -1.07% | inactive: -9.52% | inactive | – | –
10 | Cc1ccc([N+](=O)[O-])c([N+](=O)[O-])c1 | – | – | inactive: -17.9% | inactive: -25.7% | – | – | – | inactive: -25.2% | – | – | – | – | – | – | – | inactive: -7.91% | – | – | – | –
